From publication PMC6892409, “Phenotypic proteomic profiling identifies a landscape of targets for circadian clock–modulating compounds” (Life Science Alliance, 2019)

By UniProt entry, the sequences of proteins in these tests, tags left out. Where a name states a change or a piece, a line headed by the entry shows the natural chain unless it says otherwise. Residues count along the entry.
UniProt Q13409, whole entry: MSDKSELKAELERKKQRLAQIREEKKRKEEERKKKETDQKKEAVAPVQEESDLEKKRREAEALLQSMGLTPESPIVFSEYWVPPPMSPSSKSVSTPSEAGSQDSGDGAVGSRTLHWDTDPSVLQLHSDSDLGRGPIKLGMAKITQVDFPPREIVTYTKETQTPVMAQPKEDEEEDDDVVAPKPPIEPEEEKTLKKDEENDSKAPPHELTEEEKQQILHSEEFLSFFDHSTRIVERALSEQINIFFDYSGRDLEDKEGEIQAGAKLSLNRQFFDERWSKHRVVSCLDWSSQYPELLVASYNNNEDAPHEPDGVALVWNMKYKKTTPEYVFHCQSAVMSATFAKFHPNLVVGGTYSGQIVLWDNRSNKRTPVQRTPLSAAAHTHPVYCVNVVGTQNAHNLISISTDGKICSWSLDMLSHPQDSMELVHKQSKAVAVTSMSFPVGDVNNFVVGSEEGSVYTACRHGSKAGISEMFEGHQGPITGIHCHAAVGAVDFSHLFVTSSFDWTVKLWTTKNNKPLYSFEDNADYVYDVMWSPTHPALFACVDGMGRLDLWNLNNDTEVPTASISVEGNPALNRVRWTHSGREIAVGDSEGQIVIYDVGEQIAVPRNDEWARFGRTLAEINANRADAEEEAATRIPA
UniProt Q9HBL0: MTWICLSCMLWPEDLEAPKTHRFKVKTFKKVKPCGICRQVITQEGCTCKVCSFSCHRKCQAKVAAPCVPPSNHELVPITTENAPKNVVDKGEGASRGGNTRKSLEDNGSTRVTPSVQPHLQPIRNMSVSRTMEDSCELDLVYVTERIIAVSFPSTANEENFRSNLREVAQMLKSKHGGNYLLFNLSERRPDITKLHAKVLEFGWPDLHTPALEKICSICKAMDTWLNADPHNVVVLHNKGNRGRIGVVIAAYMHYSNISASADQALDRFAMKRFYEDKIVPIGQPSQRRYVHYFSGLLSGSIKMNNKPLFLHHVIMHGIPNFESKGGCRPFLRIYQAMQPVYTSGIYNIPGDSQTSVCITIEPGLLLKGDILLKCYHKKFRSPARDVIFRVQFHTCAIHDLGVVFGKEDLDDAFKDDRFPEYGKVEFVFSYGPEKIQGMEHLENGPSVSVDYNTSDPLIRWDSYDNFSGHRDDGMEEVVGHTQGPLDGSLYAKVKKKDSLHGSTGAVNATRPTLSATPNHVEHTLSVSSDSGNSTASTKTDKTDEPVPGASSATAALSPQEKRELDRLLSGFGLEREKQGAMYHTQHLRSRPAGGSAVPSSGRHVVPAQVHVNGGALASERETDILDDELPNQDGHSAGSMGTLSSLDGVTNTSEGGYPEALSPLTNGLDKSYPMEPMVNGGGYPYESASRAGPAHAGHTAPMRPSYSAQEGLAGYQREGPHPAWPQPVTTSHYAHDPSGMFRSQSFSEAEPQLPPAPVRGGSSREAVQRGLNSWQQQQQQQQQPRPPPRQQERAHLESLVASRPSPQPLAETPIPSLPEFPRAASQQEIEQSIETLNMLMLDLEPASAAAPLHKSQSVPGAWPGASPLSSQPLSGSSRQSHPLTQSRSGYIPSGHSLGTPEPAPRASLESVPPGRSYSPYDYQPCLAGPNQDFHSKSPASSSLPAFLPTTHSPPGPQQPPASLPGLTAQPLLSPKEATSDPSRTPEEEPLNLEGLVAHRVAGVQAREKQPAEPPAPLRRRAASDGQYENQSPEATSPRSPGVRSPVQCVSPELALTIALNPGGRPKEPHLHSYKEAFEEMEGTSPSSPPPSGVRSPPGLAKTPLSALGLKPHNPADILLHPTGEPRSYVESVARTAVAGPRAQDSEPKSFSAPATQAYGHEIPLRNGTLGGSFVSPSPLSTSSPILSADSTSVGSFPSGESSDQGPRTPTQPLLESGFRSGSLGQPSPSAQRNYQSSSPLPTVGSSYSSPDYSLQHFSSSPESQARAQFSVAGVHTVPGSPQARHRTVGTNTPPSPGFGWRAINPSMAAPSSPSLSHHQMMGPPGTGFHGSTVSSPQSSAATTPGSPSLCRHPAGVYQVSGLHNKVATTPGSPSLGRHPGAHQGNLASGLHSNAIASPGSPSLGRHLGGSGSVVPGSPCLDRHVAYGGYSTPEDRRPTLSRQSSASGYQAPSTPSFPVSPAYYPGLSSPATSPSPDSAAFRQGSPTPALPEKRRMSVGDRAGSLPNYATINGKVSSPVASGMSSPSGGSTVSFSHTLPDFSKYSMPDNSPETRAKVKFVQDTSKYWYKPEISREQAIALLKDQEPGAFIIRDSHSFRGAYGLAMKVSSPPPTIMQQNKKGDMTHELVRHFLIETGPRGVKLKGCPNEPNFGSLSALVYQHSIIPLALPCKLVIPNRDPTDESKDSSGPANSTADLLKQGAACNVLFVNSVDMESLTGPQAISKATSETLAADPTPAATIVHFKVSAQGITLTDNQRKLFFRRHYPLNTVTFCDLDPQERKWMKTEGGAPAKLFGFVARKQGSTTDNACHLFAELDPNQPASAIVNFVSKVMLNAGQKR
UniProt Q9NP81, 35-518: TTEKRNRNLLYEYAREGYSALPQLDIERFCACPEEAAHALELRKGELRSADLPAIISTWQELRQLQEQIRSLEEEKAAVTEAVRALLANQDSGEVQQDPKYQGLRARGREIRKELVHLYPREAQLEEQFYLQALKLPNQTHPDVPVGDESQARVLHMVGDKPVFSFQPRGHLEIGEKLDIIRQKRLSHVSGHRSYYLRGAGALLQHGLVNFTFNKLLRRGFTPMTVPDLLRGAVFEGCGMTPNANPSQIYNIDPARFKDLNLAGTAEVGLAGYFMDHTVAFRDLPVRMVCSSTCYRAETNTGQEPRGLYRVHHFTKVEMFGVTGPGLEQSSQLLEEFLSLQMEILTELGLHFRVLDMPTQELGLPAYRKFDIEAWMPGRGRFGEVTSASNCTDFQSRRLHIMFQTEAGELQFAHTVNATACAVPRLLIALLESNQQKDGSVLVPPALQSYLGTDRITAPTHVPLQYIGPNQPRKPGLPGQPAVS

Assays:
Experiment in all cases: TPP in intact U2OS cells
PSMG4 = target: T1, PSMG4 (Homo sapiens, UniProt Q5JS54); type: binding
T1 sequence (Q5JS54 1-123): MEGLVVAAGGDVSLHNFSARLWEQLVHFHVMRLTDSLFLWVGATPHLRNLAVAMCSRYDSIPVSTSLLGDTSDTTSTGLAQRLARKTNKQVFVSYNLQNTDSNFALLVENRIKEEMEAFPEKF

[1] = target: T2, Rab GTPase-binding effector protein 1 (RABEP1) (Homo sapiens, UniProt Q15276)
T2 sequence (Q15276 1-862): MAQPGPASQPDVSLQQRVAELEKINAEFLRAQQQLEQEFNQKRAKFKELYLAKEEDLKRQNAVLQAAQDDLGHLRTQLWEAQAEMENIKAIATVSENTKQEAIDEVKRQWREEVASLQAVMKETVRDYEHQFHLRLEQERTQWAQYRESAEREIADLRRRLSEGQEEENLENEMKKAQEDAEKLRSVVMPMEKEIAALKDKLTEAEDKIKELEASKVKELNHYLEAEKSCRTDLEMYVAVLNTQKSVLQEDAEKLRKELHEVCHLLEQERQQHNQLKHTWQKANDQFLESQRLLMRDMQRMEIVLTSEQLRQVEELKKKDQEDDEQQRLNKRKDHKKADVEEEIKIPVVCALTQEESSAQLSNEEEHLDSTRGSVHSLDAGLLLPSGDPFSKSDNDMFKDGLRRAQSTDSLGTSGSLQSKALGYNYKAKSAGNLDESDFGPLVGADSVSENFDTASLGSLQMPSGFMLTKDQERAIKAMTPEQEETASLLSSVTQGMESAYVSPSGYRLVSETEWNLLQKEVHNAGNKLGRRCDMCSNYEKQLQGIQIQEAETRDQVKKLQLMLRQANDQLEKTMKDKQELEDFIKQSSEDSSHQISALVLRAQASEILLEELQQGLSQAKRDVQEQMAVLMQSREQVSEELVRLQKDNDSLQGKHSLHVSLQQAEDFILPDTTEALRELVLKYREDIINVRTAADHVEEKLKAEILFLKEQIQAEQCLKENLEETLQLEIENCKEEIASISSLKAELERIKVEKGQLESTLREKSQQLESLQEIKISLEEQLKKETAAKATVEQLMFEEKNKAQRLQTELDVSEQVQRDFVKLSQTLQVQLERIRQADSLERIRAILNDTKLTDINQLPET

[2] = target: T3, Cleavage stimulation factor subunit 2 tau variant (CSTF2T) (Homo sapiens, UniProt Q9H0L4); type: binding
T3 sequence (Q9H0L4 1-616): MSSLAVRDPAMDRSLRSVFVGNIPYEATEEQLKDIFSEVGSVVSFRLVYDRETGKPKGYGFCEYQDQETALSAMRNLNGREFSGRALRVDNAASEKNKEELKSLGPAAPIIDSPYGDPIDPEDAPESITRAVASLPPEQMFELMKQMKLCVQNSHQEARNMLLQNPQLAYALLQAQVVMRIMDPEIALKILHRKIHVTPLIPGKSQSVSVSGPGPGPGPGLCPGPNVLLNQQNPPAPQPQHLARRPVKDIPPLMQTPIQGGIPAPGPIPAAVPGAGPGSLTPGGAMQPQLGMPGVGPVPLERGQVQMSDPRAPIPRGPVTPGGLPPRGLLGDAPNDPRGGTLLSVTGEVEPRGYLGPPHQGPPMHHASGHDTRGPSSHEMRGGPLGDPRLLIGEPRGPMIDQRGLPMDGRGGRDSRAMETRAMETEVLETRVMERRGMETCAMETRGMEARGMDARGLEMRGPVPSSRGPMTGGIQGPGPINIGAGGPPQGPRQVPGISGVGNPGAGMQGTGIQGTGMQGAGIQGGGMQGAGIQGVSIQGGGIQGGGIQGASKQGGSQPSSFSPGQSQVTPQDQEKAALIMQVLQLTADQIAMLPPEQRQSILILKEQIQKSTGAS

DYNC1I2 = DYNC1I2 (Homo sapiens, UniProt Q13409); type: binding
TNS1 = TNS1 (Homo sapiens, UniProt Q9HBL0); type: binding
NFU1 = target: T4, NFU1 (Homo sapiens, UniProt Q9UMS0); type: binding
T4 sequence (Q9UMS0 10-254): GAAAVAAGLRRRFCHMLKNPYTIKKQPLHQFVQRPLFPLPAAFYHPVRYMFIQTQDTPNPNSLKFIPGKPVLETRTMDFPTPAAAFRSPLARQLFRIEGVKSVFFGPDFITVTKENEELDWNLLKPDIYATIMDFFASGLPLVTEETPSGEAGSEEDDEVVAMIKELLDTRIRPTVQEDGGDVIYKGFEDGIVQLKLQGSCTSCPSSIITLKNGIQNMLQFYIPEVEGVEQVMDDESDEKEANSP

SARS2 = SARS2 (Homo sapiens, UniProt Q9NP81); type: binding
CYCS = target: T5, CYCS (Homo sapiens, UniProt P99999); type: binding
T5 sequence (P99999 1-105): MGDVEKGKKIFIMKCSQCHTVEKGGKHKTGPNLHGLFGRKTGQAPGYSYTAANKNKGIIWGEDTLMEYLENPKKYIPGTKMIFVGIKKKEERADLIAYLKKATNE

RPL37 = RPL37 (Homo sapiens, UniProt P61927)
F-box protein 21 (FBX21) = target: T6, F-box protein 21 (FBX21) (Homo sapiens, UniProt O94952)
T6 sequence (O94952 1-628): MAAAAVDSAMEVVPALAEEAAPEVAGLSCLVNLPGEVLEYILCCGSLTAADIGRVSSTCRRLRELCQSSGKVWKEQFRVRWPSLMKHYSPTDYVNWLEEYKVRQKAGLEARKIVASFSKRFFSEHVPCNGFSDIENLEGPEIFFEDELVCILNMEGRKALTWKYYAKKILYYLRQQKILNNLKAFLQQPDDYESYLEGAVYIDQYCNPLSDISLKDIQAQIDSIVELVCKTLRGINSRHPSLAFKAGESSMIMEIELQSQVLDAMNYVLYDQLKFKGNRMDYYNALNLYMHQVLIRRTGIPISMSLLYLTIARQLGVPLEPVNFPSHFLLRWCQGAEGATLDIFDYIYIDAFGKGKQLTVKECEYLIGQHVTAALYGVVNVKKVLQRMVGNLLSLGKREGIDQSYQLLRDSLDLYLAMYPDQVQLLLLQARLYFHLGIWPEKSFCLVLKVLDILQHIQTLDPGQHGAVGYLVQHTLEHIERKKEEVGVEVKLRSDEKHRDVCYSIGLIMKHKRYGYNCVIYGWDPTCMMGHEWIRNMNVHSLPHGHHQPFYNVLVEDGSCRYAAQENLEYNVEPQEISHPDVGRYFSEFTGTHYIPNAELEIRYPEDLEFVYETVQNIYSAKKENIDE

## CC[C@H](CO)Nc1nc(NCc2ccccc2)c2ncn(C(C)C)c2n1 [Roscovitine, roscovitine]
PSMG4; read-out: + Tm shift PSMG4, Rep1
  ΔTm at 10 µM: 4.4 °C
PSMG4; read-out: + Tm shift PSMG4, Rep2
  ΔTm at 10 µM: 4.1 °C
[1]; read-out: + Tm shift RABEP1, Rep1
  ΔTm at 10 µM: 2.5 °C
[1]; read-out: + Tm shift RABEP1, Rep2
  ΔTm at 10 µM: 2.7 °C
[2]; read-out: + Tm shift CSTF2T, Rep1
  ΔTm at 10 µM: 2.2 °C
[2]; read-out: + Tm shift CSTF2T, Rep2
  ΔTm at 10 µM: 2.2 °C
DYNC1I2; read-out: + Tm shift DYNC1I2, Rep1
  ΔTm at 10 µM: 2.9 °C
DYNC1I2; read-out: + Tm shift DYNC1I2, Rep2
  ΔTm at 10 µM: 1.1 °C
TNS1; read-out: + Tm shift TNS1, Rep1
  ΔTm at 10 µM: 0.8 °C
TNS1; read-out: + Tm shift TNS1, Rep2
  ΔTm at 10 µM: 2.1 °C
NFU1; read-out: + Tm shift NFU1, Rep1
  ΔTm at 10 µM: 2.1 °C
NFU1; read-out: + Tm shift NFU1, Rep2
  ΔTm at 10 µM: 0.4 °C
SARS2; read-out: + Tm shift SARS2, Rep1
  ΔTm at 10 µM: 0.9 °C
SARS2; read-out: + Tm shift SARS2, Rep2
  ΔTm at 10 µM: 1.3 °C
CYCS; read-out: + Tm shift CYCS, Rep1
  ΔTm at 10 µM: 1.1 °C
CYCS; read-out: + Tm shift CYCS, Rep2
  ΔTm at 10 µM: 1.4 °C
RPL37; read-out: + Tm shift RPL37, Rep1
  ΔTm at 10 µM: 1.3 °C
RPL37; read-out: + Tm shift RPL37, Rep2
  ΔTm at 10 µM: 0.6 °C
F-box protein 21 (FBX21); read-out: + Tm shift FBX21, Rep1
  ΔTm at 10 µM: 4.1 °C
F-box protein 21 (FBX21); read-out: + Tm shift FBX21, Rep2
  ΔTm at 10 µM: 1.7 °C

Read-outs that look alike come from different tables or passages of the source.
